From patent US20040106773A1 (priority 2003, published 2004)

Protein sequences, listed by entry. Tags and fused reporters are not part of them. Residues count along the entry.
UniProt P70555, 25-546: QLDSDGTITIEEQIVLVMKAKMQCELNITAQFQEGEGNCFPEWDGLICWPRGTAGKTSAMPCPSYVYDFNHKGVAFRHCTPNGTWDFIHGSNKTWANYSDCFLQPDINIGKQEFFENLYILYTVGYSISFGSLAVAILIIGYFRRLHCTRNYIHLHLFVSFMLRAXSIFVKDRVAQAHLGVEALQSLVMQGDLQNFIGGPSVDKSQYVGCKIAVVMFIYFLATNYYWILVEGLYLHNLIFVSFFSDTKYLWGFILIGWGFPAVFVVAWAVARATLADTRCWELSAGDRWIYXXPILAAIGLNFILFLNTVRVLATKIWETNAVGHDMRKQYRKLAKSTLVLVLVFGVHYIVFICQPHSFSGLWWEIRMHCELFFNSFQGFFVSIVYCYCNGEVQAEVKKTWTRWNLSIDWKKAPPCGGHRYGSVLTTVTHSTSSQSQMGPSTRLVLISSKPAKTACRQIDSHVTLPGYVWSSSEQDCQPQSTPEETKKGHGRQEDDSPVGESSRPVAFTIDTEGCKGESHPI
UniProt P49190, 25-550: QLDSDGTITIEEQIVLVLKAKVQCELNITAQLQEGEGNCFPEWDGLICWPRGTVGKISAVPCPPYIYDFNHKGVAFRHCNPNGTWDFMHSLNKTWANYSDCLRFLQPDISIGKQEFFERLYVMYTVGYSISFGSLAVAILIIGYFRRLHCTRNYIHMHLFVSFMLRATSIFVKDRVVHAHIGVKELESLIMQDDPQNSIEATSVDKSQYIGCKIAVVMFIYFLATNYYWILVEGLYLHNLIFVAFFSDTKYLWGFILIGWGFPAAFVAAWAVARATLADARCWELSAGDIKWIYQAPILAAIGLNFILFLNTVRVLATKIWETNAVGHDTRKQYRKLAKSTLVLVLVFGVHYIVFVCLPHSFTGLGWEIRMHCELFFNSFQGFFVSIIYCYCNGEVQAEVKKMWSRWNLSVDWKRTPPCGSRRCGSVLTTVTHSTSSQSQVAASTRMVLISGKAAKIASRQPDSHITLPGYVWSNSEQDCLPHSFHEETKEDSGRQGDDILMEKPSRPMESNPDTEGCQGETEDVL

Key:
Format in all cases: cell-based
rat PTH2R [1] = target: T1, rat PTH2R (Rattus norvegicus, UniProt P70555); experiment: cAMP SPA assay for PTH2R activation, rat PTH2R; conditions: HEK293 cells stably expressing rat PTH2R; mean±S.D., n=3-7; read-out: logEC50, increase in cAMP (converted)
T1 construct: V5-His (appears only in the vector name); expressed in transfected cells
Description: (§1) HEK293 cells were transfected with rat and human PTH2R and cell lines that stably express the receptors were established and evaluated. One cell line was selected for each rat and human PTH2R and used for all the functional assays. Specifically, HEK293 cells were transfected with pCDNA3.1/V5-His-RatPTH2R plasmid DNA and pCDNA3.1-E/Uni-lacZ-HumanPTH2R plasmid DNA using FuGENE 6 transfection reagent (Roche Molecular Biochemicals). Three days after transfection, cells were put under selection with 800 μg/ml geneticin (G418, Gibco BRL). After three weeks of selection, single colonies were cloned using cloning cylinders. Cloned colonies were scaled up to T25 flasks. More than 10 cell lines for each plasmid were tested for function in the cAMP SPA assay.
(§2) HEK293PTH2R cells were seeded in a 96-well poly-D-lysine coated plate at 100,000 cells per well and cultured overnight. After washing with 200 μl of PBS and treating with 100 μl of 300 nM IBMX in assay medium (MEM without phenol red and FBS) at 37° C. for 10 min. The assay medium was then aspirated and the cells were washed with PBS. The cellular of cAMP was measured using cAMP SPA Direct Screening (Amersham/Pharmacia RPA559). Each concentration of ligand was repeated as triplicate.

human PTH2R [2] = target: T2, human PTH2R (Homo sapiens, UniProt P49190); experiment: cAMP SPA assay for PTH2R activation, human PTH2R; conditions: HEK293 cells that expressed human PTH2R; mean±S.D., n=4-7; read-out: logEC50, increase in cAMP (converted)
T2 construct: expressed in transfected cells
Description: as §1, §2

rat PTH2R [3] = target: T1, rat PTH2R; experiment: Measurement of [Ca2+]i using the FLIPR, rat PTH2R; conditions: HEK293 cells that express rat PTH2R; mean±S.D., n=4-5; read-out: logEC50, increase in [Ca2+]i (peak fluorescence) (converted)
Description: as §1
(§3) HEK293 cells were seeded into […] clear-base 96 well plates (BD Biocoat) coated with poly-D-lysine at a density of 100,000 cells per well in MEM, and cultured overnight.
(§4) Curve-fitting and parameter estimation were carried out using Graph Pad Prism, 3.00 (GraphPad Software Inc., California, U.S.A.).

human PTH2R [4] = target: T2, human PTH2R; experiment: Measurement of [Ca2+]i using the FLIPR, human PTH2R; conditions: HEK293 cells that express human PTH2R; mean±S.D., n=4-5; read-out: logEC50, increase in [Ca2+]i (peak fluorescence) (converted)
Description: as §1, §3, §4

Structure (SMILES): CSCC[C@H](NC(=O)[C@H](Cc1ccc(O)cc1)NC(=O)[C@H](CO)NC(=O)[C@H](CC(=O)O)NC(=O)[C@H](CC(C)C)NC(=O)[C@H](Cc1c[nH]c2ccccc12)NC(=O)[C@H](CCCNC(=N)N)NC(=O)[C@H](CCCNC(=N)N)NC(=O)[C@H](CCCNC(=N)N)NC(=O)[C@H](CCC(=O)O)NC(=O)[C@H](CC(C)C)NC(=O)[C@H](C)NC(=O)[C@H](C)NC(=O)[C@H](CC(C)C)NC(=O)[C@H](CC(C)C)NC(=O)[C@H](CCCNC(=N)N)NC(=O)[C@H](C)NC(=O)[C@H](CCCNC(=N)N)NC(=O)[C@H](CCC(=O)O)NC(=O)[C@H](CCCNC(=N)N)NC(=O)[C@H](Cc1ccccc1)NC(=O)[C@H](C)NC(=O)[C@H](C)NC(=O)[C@H](CC(=O)O)NC(=O)[C@H](CC(=O)O)NC(=O)[C@H](C)NC(=O)[C@H](CC(C)C)NC(=O)[C@H](C)NC(=O)[C@H](CC(C)C)NC(=O)[C@@H](N)CO)C(=O)N[C@@H](CCC(N)=O)C(=O)N[C@@H](CCCCN)C(=O)N[C@@H](CC(C)C)C(=O)N[C@@H](CC(C)C)C(=O)N[C@@H](CC(C)C)C(=O)N[C@@H](CC(C)C)C(=O)N[C@@H](CC(=O)O)C(=O)N[C@@H](C)C(=O)N1CCC[C@H]1C(=O)O [Mouse TIP39, mouse tuberoinfundibular peptide of 39 residues]
- EC50 (rat PTH2R [1]): 0.126 nM
- EC50 (human PTH2R [2]): 0.2 nM
- EC50 (rat PTH2R [3]): 50.1 nM
- EC50 (human PTH2R [4]): 15.8 nM
